Measured values reported in PubChem BioAssay AID422 (Emory University Molecular Libraries Screening Center, 2006).
Where “and” joins values, the source holds several entries; their conditions need not be identical. Identical values can stand only once. Only a part is listed here, and it is no random draw. Calls of active or inactive are those of the source. No stated cut-off is given here; in the data, active means inhibition above about 30%; inactive means the rest.

The chains behind the UniProt entries cited, without tags or fusion partners.
UniProt P61981, whole entry: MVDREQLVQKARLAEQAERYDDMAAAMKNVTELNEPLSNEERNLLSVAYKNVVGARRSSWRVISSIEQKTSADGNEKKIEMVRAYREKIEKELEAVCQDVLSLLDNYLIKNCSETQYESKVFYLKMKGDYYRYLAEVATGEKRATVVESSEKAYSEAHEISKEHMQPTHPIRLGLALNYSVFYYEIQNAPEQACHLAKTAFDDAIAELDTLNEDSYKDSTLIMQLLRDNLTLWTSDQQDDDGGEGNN

What follows are compounds tested against 14-3-3 protein gamma (Homo sapiens) (UniProt P61981) (assay: modulators of 14-3-3 gamma protein binding, primary screen, biochemical, fluorescence polarization (AID 422;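 further: 0% = protein plus tracer without compound and 100% = blank with tracer alone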)). Conditions: FP, 14-3-3gamma / TMR-pS259-Raf peptide binding; at 40 µM; stronger effect = higher value.
With `CP(=O)(Nc1ccc(Cl)cc1)Oc1ccc(F)cc1` (stereo not drawn) the inhibition was inactive: 3.92%. For `COc1ccccc1OP(C)(=O)Nc1c(C)n(C)n(-c2ccccc2)c1=O` (stereo not drawn), the inhibition was inactive: -0.41%. For `CP(=O)(Oc1ccccc1)N1CCOC1=O` (stereo not drawn), the inhibition was inactive: -16.5%. For `CCN(CC)CC(O)COC(=O)C(O)(c1ccccc1)C1CCCCC1` (stereo not drawn), the inhibition was inactive: 3.9%. `N#[O+].[C-]#N.[C-]#N.[C-]#N.[C-]#N.[C-]#N.[Fe+2].[Na+].[Na+]` was tested, and the inhibition was inactive: 2.81%. With `Cc1nc2ccc3ccccc3c2o1.O=[N+]([O-])c1cc([N+](=O)[O-])c(O)c([N+](=O)[O-])c1` the inhibition was inactive: -1.56%. With `Cn1cc([N+](=O)[O-])nc1[N+](=O)[O-]` the inhibition was inactive: -1.83%. In the case of `COc1ccccc1OP(C)(=O)Nc1ccc(C)c(C)c1` (stereo not drawn), the inhibition is reported as inactive: 1.85%. `CP(=O)(Nc1ccccn1)Oc1ccccc1` (stereo not drawn) was tested, and the inhibition was inactive: 5.61% and inactive: 0.9%. In the case of `O=[N+]([O-])c1cc([N+](=O)[O-])c(O)c([N+](=O)[O-])n1`, the inhibition is reported as inactive: -5.86%. `CP(=O)(Nc1cccc(C(F)(F)F)c1)Oc1ccc(Cl)cc1` (stereo not drawn) was tested, and the inhibition was inactive: 4.23%. `CC(CNC(=O)C(C)([N+](=O)[O-])[N+](=O)[O-])([N+](=O)[O-])[N+](=O)[O-]` was tested, and the inhibition was inactive: 0.7%. `CP(=O)(Nc1ccccc1F)Oc1ccccc1` (stereo not drawn) was tested, and the inhibition was inactive: -7.05%. With `COc1ccc(NP(C)(=O)Oc2cc(C)cc(C)c2)cc1` (stereo not drawn) the inhibition was inactive: 0.33%. `CP(=O)(Nc1ccccc1)Oc1ccc(F)cc1` (stereo not drawn) was tested, and the inhibition was inactive: -2.28%. With `COc1cc2c(cc1NP(C)(=O)Oc1ccccc1)oc1ccccc12` (stereo not drawn) the inhibition was inactive: -13.5%. With `Cc1ccc(Cl)c(OP(C)(=O)Nc2cccnc2)c1` (stereo not drawn) the inhibition was inactive: 6.68%. With `CN(C)CCOC(=O)C(O)(c1ccccc1)C1CCCCC1` (stereo not drawn) the inhibition was inactive: -6.67%. In the case of `Cc1ccccc1NP(C)(=O)Nc1ccccc1C`, the inhibition is reported as inactive: -3.16%. With `Cc1cc(C)cc(OP(C)(=O)Nc2cccc(Cl)c2C)c1` (stereo not drawn) the inhibition was inactive: -3.42%. With `CP(=O)(Nc1ccc2c(c1)OCCO2)Oc1ccccc1` (stereo not drawn) the inhibition was inactive: 9.28%. `CCOP(C)(=S)SCC(=O)NC(C)(CC)C(=O)O` (stereo not drawn) was tested, and the inhibition was inactive: 5.93%. In the case of `Cc1ccc(Cl)c(OP(C)(=O)Nc2ccc(F)cc2)c1` (stereo not drawn), the inhibition is reported as inactive: -5.66%. For `Nc1nc(N)c([N+](=O)[O-])cc1[N+](=O)[O-]`, the inhibition was inactive: -3.2%. `Cc1nc2ccc3ccccc3c2s1.O=[N+]([O-])c1cc([N+](=O)[O-])c(O)c([N+](=O)[O-])c1` was tested, and the inhibition was inactive: -5.22%. With `COc1ccc(NP(C)(=O)Oc2ccc(Cl)cc2)cc1` (stereo not drawn) the inhibition was inactive: 6.83%. In the case of `O=c1[nH]nc([N+](=O)[O-])[nH]1`, the inhibition is reported as inactive: -175%. In the case of `CCCOc1ccc(NP(C)(=O)Oc2ccc(Cl)cc2)cc1` (stereo not drawn), the inhibition is reported as inactive: -1.95%. With `Cc1c([N+](=O)[O-])no[n+]1[O-]` the inhibition was inactive: 2.51%. For `Cc1ccc(C)c(NP(C)(=O)Oc2ccccc2)c1` (stereo not drawn), the inhibition was inactive: -4.71%. With `Cc1cc(C)cc(OP(C)(=O)Nc2ccccn2)c1` (stereo not drawn) the inhibition was inactive: 3.92%. `CCOC(=O)c1ccc(NP(C)(=O)Oc2cc(C)cc(C)c2)cc1` (stereo not drawn) was tested, and the inhibition was inactive: 4.23%. `COc1ccccc1OP(C)(=O)Nc1ccc(C)cc1` (stereo not drawn) was tested, and the inhibition was inactive: 0.94%. With `Cc1ccc(NP(C)(=O)Oc2ccccc2)c(C)c1` (stereo not drawn) the inhibition was inactive: 4.51%. In the case of `O=C(O)C1(O)c2ccccc2-c2ccccc21`, the inhibition is reported as inactive: -1.46%. `CP(=S)(Nn1cnnc1)Oc1ccccc1` (stereo not drawn) was tested, and the inhibition was inactive: -1.87%. In the case of `CCOP(C)(=S)SCC(=O)NC(C)C(=O)O` (stereo not drawn), the inhibition is reported as inactive: -7.11%. For `O=C(OCC#CCN1CCCCC1)C(O)(c1ccccc1)c1ccccc1`, the inhibition was inactive: -4.84%.
